# Laboratory results taken from patent US9302003B2, “Compositions comprising a radiosensitizer and an anti-cancer agent and methods of uses thereof” (priority 2009, dated 2016).
# System: Fischer rats
# Assay type: in vivo
# Conditions: 1 ml/rat intra-carotid, platinum drugs 3 mg/ml, LipoGold 0.00289 mg/ml
compound,measurement,value
O=C1[O][Pt]2([NH][C@@H]3CCCC[C@H]3[NH]2)[O]C1=O [oxaliplatin],apparent toxicity,apparent high toxicity
